Laboratory results published in patent US20100297109A1, “METHODS FOR INHIBITING FASCIN” (Cornell University, priority 2007, published 2010).

Target: F-actin polymers (polymerized from monomeric rabbit G-actin) (rabbit) (UniProt P68135)
Test: cell-based or functional assay

Substance: purified recombinant fascin protein (Example 5)
- inhibition of fascin-induced F-actin bundle formation in the presence of the small molecule macroketone (fluorescence microscopy): > 80%
